Here are results for two compounds from article PMC7253723, “Chain-End Modifications and Sequence Arrangements of Antimicrobial Peptoids for Mediating Activity and Nano-Assembly” (Frontiers in Chemistry, 2020).

A short description of data set [1]: Analytical RP-HPLC elution (ACN %) as measure of hydrophobicity. It is filed as physicochemical. The following applies: chromatographic, C18 column (250 × 4.6 mm Nucleosil), 30 min gradient 5–95% ACN in water with 0.1% TFA, 1 mL/min, used as measure of hydrophobicity. Here is the method:
Peptoids were synthesized on resin manually or with an automated synthesizer (Prelude X, Gyros Protein Technologies) using a solid phase “submonomer” approach (Zuckermann et al., [1992]; Lau, [2014]; Lau et al., [2017]). Briefly, the Fmoc protected rink amide resin was deprotected with 20% piperidine for 20 min, applied twice. Each residue was added by treatment to a mixture of bromoacetic acid (20 times excess) and diisopropyl-carbodiimide (18.5 times excess) for 15 min, followed by a halo-substitution reaction with appropriate primary amine submonomers. For the attachment of a di ethylene glycol linker, Fmoc-amino-3,6 dioxaoctanoic acid (1.8 mmol), and equivalent moles of HBTU ((2-(1H-benzotriazol-1-yl)-1,1,3,3-tetramethyluronium hexafluorophosphate) were reacted with the terminal amino group in the presence of N,N-diisopropylethylamine (DIPEA, 2.7 mmol). This reaction was carried out for 2 h at 37°C and repeated a second time for 4 h, to ensure coupling. Like resin Fmoc deprotection, EG2 N-terminal Fmoc deprotection was achieved using 20% piperidine for 20 min, applied twice. Different chain lengths of saturated fatty acids, i.e., pelargonic acid (C8), lauric acid (C11), and palmitic acid (C15) were subsequently coupled using the HBTU amide coupling as reported previously (Lau et al., [2017]). […]

Data set [2] deals with Escherichia coli (ATCC 25922). The class given is cell-based. On the procedure: (§1) Technical triplicates (n = 3) or more of samples at each concentration were analyzed.
For data set [3], the system named is Staphylococcus aureus (NCTC 4135). The class given is cell-based. On the procedure:
as §1

Data set [4] is described as follows: Critical aggregation concentration (CAC) Nile red fluorescence assay. It is filed as physicochemical. The following applies: Nile red fluorescence (~10 nM NR in water), lipopeptoids 2.5 × 10^-2 to 1 wt.%, excitation 552 nm, peak around 610 nm, room temperature; inflection in emission intensity. On the procedure: Nile red (NR) fluorescence was used to measure critical aggregation concentration (CAC) for the synthesized lipopeptoids. Lipopeptoids were dissolved at 2.5 × 10^−2 to 1 wt.% in a dilute solution of Nile red (0.25 μg/100 mL, i.e. ~10 nM concentration) prepared in water. NR was excited at 552 nm and emission was recorded at room temperature in the range 550–750 nm using a 10.0 × 5.0 mm^2 quartz cell (Jasco spectrofluorimeter FP-6500). The intensity of the peak centered around 610 nm is shown in the data presented in Section results and discussion.
We first examined with a CAC assay whether coupling a hydrophobic tail to AMPMs and inserting the kk and EG2 components is a viable design for generating self-assembling lipopeptoids. The CAC measures the concentration above which hydrophobic pockets (e.g., lipophilic cores of micelles) are formed, and lower CACs indicate higher propensities of self-assembly. In our experiments, the CAC is indicated by an inflection in the increase in emission intensity of a lipophilic fluorophore tracer (Nile Red) that emits more strongly when partitioned into hydrophobic lower dielectric environments (see Figure S6 for an example analysis).

In data set [5] the test system is Pseudomonas aeruginosa (PA01). The class given is cell-based. On the procedure: as §1

For `CCCCCCCCC(=O)NCCOCCOCC(=O)N(CCCCN)CC(=O)N(CC(=O)N(CC(=O)N(CCCCN)CC(=O)N(CC(=O)N(CC(=O)N(CCCCN)CC(=O)N(CC(=O)N(CC(=O)N(CCCCN)CC(=O)N(CC(=O)N(CC(=O)N(CCCCN)CC(=O)N(CCCCN)CC(N)=O)[C@@H](C)c1ccccc1)[C@@H](C)c1ccccc1)[C@@H](C)c1ccccc1)[C@@H](C)c1ccccc1)[C@@H](C)c1ccccc1)[C@@H](C)c1ccccc1)[C@@H](C)c1ccccc1)[C@@H](C)c1ccccc1` [C8-EG2-(kss)4-kk], the Hydrodynamic radius RH (DLS) came out at 30 nm. Moreover, in data set [1], the “elution ACN % (RP-HPLC retention)” value is 48 ACN %. The “Antimicrobial activity (MIC) E. coli” value in data set [2] stood at 2 ± 0.3 µM. In addition, the “Antimicrobial activity (MIC) S. aureus” value in data set [3] came out at 2 ± 0.1 µM. In data set [4], this compound came in with a CAC of 290 ± 14 µM.
On to `CCCCCCCCCCCC(=O)NCCOCCOCC(=O)N(CCCCN)CC(=O)N(CC(=O)N(CC(=O)N(CCCCN)CC(=O)N(CC(=O)N(CC(=O)N(CCCCN)CC(=O)N(CC(=O)N(CC(=O)N(CCCCN)CC(=O)N(CC(=O)N(CC(=O)N(CCCCN)CC(=O)N(CCCCN)CC(N)=O)[C@@H](C)c1ccccc1)[C@@H](C)c1ccccc1)[C@@H](C)c1ccccc1)[C@@H](C)c1ccccc1)[C@@H](C)c1ccccc1)[C@@H](C)c1ccccc1)[C@@H](C)c1ccccc1)[C@@H](C)c1ccccc1` [C11-EG2-(kss)4-kk], for which the “elution ACN % (RP-HPLC retention)” value in data set [1] is on record as 55 ACN %. For the same compound, the “Antimicrobial activity (MIC) E. coli” value in data set [2] stood at 7 ± 0.1 µM. In addition, in data set [5], the “Antimicrobial activity (MIC) P. aeruginosa” value turned out to be 14 ± 1 µM. Besides, the “Antimicrobial activity (MIC) S. aureus” value in data set [3] is 2 ± 0.2 µM. Also, the CAC in data set [4] was determined as 270 ± 31 µM.
